Assay results taken from US9862707B2, “TrkA kinase inhibitors, compositions and methods thereof” (Merck Sharp & Dohme Corp., priority 2014, dated 2018).
pIC50: −log10 of the molar value.

The chains behind the UniProt entries cited, without tags or fusion partners. Residues count along the entry.
UniProt P04629, 33-796 limits assumed: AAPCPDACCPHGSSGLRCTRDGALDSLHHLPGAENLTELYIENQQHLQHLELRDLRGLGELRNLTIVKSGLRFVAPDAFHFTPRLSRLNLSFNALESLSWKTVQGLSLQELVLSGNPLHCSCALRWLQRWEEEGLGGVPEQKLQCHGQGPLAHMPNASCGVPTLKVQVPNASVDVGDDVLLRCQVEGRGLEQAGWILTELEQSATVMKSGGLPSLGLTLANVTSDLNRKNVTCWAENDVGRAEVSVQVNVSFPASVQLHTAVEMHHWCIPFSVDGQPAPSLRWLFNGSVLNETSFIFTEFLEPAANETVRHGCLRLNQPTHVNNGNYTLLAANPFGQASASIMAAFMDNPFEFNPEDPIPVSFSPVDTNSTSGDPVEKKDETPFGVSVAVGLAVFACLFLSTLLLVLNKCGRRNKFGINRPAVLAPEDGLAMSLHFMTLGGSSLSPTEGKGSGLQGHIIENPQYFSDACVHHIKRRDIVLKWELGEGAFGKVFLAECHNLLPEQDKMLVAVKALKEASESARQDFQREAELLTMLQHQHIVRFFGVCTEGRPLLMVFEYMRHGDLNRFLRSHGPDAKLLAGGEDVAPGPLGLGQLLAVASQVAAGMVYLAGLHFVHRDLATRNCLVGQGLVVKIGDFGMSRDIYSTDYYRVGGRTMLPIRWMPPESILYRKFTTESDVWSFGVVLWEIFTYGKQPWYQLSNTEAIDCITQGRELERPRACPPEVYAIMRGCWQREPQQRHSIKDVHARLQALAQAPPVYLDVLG

Target: human TrkA receptor (Homo sapiens (Human), UniProt P04629)
Test: TrkA functional activity, DiscoverX PathHunter assay
Assay type: cell-based
Details: U2OS cells expressing human TrkA-PK, Shc1-EA and p75NTR; compound 1 h, then NGF at ~80% of maximal response for 3 h; luminescence

Structure (SMILES): CC(C)(O)c1ccc2nn(-c3ccccc3)c(NC(=O)c3cc(-c4ncccn4)c(C(F)(F)F)cc3F)c2c1 [Compound 44, 2-Fluoro-N-(5-(2-hydroxypropan-2-yl)-2-phenyl-2H-indazol-3-yl)-5-(pyrimidin-2-yl)-4-(trifluoromethyl)benzamide]
- pIC50: 8.34
